{"source": "patent US9539257B2", "about": "“Method of treating cancer” (NOVARTIS AG, priority 2009, dated 2017)", "key": {"[1]": {"system": "UGT1A1*28", "experimental": "The two phenotypes that were evaluated were maximum on-treatment liver chemistry values for ALT and TBL with respect to the upper limit of normal. These phenotypes were evaluated separately in case-control and quantitative trait analyses and jointly in a combined case-control analysis. ALT and TBL cases were defined as maximum on-treatment elevations of ≧3×ULN and ≧1.5×ULN, respectively, and control subjects were defined as maximum on-treatment ALT or TBL of ≦1×ULN.\n2) As genetic understanding of drug-induced liver injury is limited, a comprehensive drug induced liver injury (DILI) panel, developed by GSI in consultation with external liver experts was also evaluated. This DILI panel is comprised of approximately 6500 single nucleotide polymorphisms (SNPs) in 270 gene regions derived from the postulated mechanisms involved in the pathophysiology of DILI. In both approaches, genetic variation in each gene region was investigated using tag SNPs selected from the International HapMap project and/or high density SNP coverage consisting of all functional SNPs with a previously recorded genotype to phenotype correlation. […] Evaluation of HLA genes focused on a subset of the total number of patients consisting of all ALT cases (N=47) and matched controls (N=47)."}, "[2]": {"system": "UGT1A1*28", "remark": "listed apart in the source"}}, "note": "Where two headings read alike, the source gives them in different places.", "data": [{"smiles": "CS(=O)(=O)CCNCc1ccc(-c2ccc3ncnc(Nc4ccc(OCc5cccc(F)c5)c(Cl)c4)c3c2)o1", "note": "[lapatinib, N-(3 chloro-4-{[(3-fluorophenyl)methyl]oxy}phenyl)-6-[5-({[2 (methylsulfonyl)ethyl]amino}methyl)-2-furanyl]-4-quinazolinamine bis(4 methylbenzenesulfonate)monohydrate]", "values": [{"measurement": "combined ALT/TBL cases that were UGT1A1*28 TA7/TA7 homozygotes", "setting": "[1]; exploratory, 5/13 combined cases", "result": 38, "unit": "%"}, {"measurement": "odds ratio (95% CI) of being a case than a control", "setting": "[1]; patients homozygous for UGT1A1*28 vs other genotypes, TBL elevation", "result": "10.7 (5.3-21.6)"}, {"measurement": "risk of lapatinib induced hyperbilirubinemia, (TA)7/(TA)7 genotype relative to (TA)6/(TA)6 and (TA)6/(TA)7", "setting": "[1]; post-hoc investigation, AMBC trials, monotherapy or combinations", "result": "statistically significant increase"}, {"measurement": "combined ALT/TBL cases carrying UGT1A1 TA7/TA7 genotype", "setting": "[2]; restricted baseline (ALT and TBL <=1xULN at baseline)", "result": "1/6"}, {"measurement": "odds ratio", "setting": "[2]; two copies of TA7 as risk group, TBL cases vs controls, exact 95% CI 3.23-42.16", "result": 12.06}, {"measurement": "combined ALT/TBL cases carrying UGT1A1 TA7/TA7 genotype", "setting": "[2]; unrestricted baseline (ALT and/or TBL >1xULN at baseline)", "result": "4/6"}]}]}
